Laboratory results: article PMC7461649 (Journal of medicinal chemistry, 2020)

Protein sequences, listed by entry. Tags and fused reporters are not part of them. Lines headed by an entry give the natural chain unless they say otherwise; changes in a name come on top.
UniProt A0A125SA05: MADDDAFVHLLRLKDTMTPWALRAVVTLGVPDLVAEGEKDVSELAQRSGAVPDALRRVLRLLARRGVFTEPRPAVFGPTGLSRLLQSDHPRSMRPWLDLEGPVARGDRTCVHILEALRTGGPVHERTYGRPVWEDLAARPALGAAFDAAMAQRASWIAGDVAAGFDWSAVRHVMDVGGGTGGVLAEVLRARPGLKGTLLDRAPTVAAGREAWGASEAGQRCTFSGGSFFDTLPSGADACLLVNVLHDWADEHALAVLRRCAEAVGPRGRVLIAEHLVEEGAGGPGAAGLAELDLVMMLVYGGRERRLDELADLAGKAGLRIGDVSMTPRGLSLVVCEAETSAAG

Biological target: TnmH (Streptomyces sp. CB03234, UniProt A0A125SA05)
Experiment: X-ray crystal structure, […] Å
Type: binding
Settings: SAM soaked into TnmH crystals; homodimer

In the case of `C[S+](CC[C@H](N)C(=O)O)C[C@H]1O[C@@H](n2cnc3c(N)ncnc32)[C@H](O)[C@@H]1O` (stereo partly shown) [SAM], the “X-ray crystal structure, 2.73 Å” value was “holo-TnmH X-ray crystal structure in complex with SAM (PDB entry 6CLX)”.
